# The entries are a selection whose mix differs from that of the whole data set. Calls of active or inactive are those of the source.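 Rule for the calls: active = inhibition above 50%; inactive = the rest.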
# Experiment: HepG2 cytotoxicity, primary screen, cytotoxicity control for P. falciparum antimalarial project, cell-based, ATP luminescence (AID 2303);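 note: 0% = DMSO wells and 100% = digitonin-killed cells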
# Settings: HepG2 viability, 24-48 h, at 10 µM, active compounds read high
row,SMILES,inhibition
1,COc1cc(C(=O)NC(SC2=NCCS2)C(Cl)(Cl)Cl)cc(OC)c1OC (stereo unspecified),inactive: 4%

# Source: PubChem BioAssay AID2303 (GlaxoSmithKline (GSK), 2010)
